According to US20040166508A1, “Analytical platform and detection method with the analytes to be determined in a sample as immobilized specific binding partners, optionally after fractionation of said sample” (priority 2002, published 2004):

Test system: p44/42 MAP kinase (Erk2 and pErk2)
Assay: Detection of total Erk2/pErk2 (p44/42 MAP kinase) in immobilized Jurkat cell lysates (antibody A4)
Assay type: cell-based, human
Details: Jurkat cells treated with 10 μM for 180 min

With `CN[C@@H]1C[C@H]2O[C@@](C)([C@@H]1OC)n1c3ccccc3c3c4c(c5c6ccccc6n2c5c31)C(=O)NC4` [staurosporin, staurosporine] the “relative total content of Erk2/pErk2 in comparison with the other samples” value was “no difference”.
